# Apparent affinities of Ab-91 variants for a coronavirus HR2 peptide

The target is the same throughout: PDVDLGDISGINAS, from the HR2 region of SARS-CoV-2 spike.

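In library AAYL51, one, two or three CDR residues were substituted; doubles and triples were drawn at random. In AlphaSeq, yeast of one mating type display the scFv and yeast of the other type display the target. The frequency of each diploid, read from paired DNA barcodes, reflects how well the two displayed proteins bind. Read counts were normalised to the haploid input and turned into Kd by a linear fit to BCL2-family pairs of known affinity, for each replicate. Each pool was mated in three replicate cultures.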

Each scFv is VL, a (GGGGS)3 linker, VH, as in the parent Ab-91, and differs from it in the CDRs of the heavy chain only.
VL: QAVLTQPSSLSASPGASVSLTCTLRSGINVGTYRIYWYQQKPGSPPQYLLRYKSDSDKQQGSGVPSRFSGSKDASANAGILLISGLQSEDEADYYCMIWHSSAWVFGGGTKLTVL
VH: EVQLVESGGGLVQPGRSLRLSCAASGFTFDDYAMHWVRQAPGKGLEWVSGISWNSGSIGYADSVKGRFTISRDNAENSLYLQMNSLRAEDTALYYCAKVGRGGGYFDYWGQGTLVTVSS

Variants are written as CDR1, CDR2 and CDR3 of the heavy chain (limits as in the source). Parent: GFTFDDYAMH, GISWNSGSIGYADSVK, VGRGGGYFDY. All variants listed here change S52 of the VH, counted from its first residue. Kd is apparent (estimated from mating counts) and averaged on the log scale over replicates with a signal. Smaller is tighter. A pair that was not seen in any replicate is written "no signal"; this usually means weak binding, but a binder can also be missed. As a blank, each scFv also met three strains without target: over library AAYL51, 21% of these pairings were detected, typically at 34 µM and seldom below 1.8 µM.

CDR-H1	CDR-H2	CDR-H3	Kd	detected
GFTFDDYSMH	GIEWNSGSIGYADSVK	VERGGGYFDY	6.8 µM	1/3
GFTFDDYAMH	GIVWNSGSIGYADSVK	VGRGGGRFVY	no signal	0/3
GFTFDDYAMH	SIEWNSGSIGYADSVK	VGRGGGLFDY	no signal	0/3
GFTFDDYAMH	WICWNSGRIGYADSVK	VGRGGGYFDY	no signal	0/3
GFYFDDYAMH	GIQWNSGSIGYADSVK	VGRGGGTFDY	67 µM	1/3
GFTFDDEAMK	GIGWNSGSIGYADSVK	VGRGGGYFDY	25 µM	2/3
GFTFDDYAWH	GIPWNSGSIGYADLVK	VGRGGGYFDY	6.3 µM	2/3
GFTFDDYAMH	GIMWNSGSIGYADSCK	VGRGGHYFDY	no signal	0/3
GFTFDDYAMH	GIIWNSGSIVYADSVK	VERGGGYFDY	no signal	0/3
GFTFDDWAMH	GITWNSGSIGYADSVK	YGRGGGYFDY	no signal	0/3
GFTFDDYAMH	GIYWNSGSIGYADSVQ	VGAGGGYFDY	25 µM	3/3
GFTFDDYAMY	GIRWNSGSIGYADSVK	VGRGGGYFTY	no signal	0/3
GFTFDDYRMH	GIMWNSGSIGYADSVK	VGRGGGYFDL	no signal	0/3
GFTFDDYAMH	GIEWNSGSIGYADSVK	VGRGGGYFDY	29 µM	2/3
GFTRDDYAMH	GIYWNSGSIGYADSVK	IGRGGGYFDY	24 µM	1/3
GFTFDDYAMH	GITWNSGSIGYAKSVK	VGRGGGYGDY	1.2 mM	1/3
GCTFDDYQMH	GIMWNSGSIGYADSVK	VGRGGGYFDY	4.7 µM	1/3
GFTFDDYAMH	GICWNSESIGYADSVK	VGGGGGYFDY	no signal	0/3
GFTFWDYAMH	GIHWNSHSIGYADSVK	VGRGGGYFDY	30 µM	2/3
GFTFDDYAMH	GINWTSGSAGYADSVK	VGRGGGYFDY	no signal	0/3
GFTFDDLAMH	GILWNSGSIGYADSVK	VGRGPGYFDY	no signal	0/3
MFTFDDYQMH	GIPWNSGSIGYADSVK	VGRGGGYFDY	no signal	0/3
GFTFDDYAMH	GIMWNSSSIGYVDSVK	VGRGGGYFDY	100 µM	1/3
GFTFDDYTMH	GIWWNSCSIGYADSVK	VGRGGGYFDY	28 µM	2/3
GFLFDDSAMH	GILWNSGSIGYADSVK	VGRGGGYFDY	610 µM	1/3
GFTFDDYAMH	GINWNSGSIGYADSVK	VGRGGGYFDY	9.6 µM	2/3
GFTFDDYAMH	FIFWNSGSIGYADSVK	VGRGGGYFDY	no signal	0/3
GHTFDDYAMH	GIDWNSGSIGYADSTK	VGRGGGYFDY	2.6 µM	1/3
GFTFDDYAMH	GIAWNSGYIGYADSVK	VGRLGGYFDY	15 µM	1/3
GFTFDDYAMH	GIPWNSGSIGYADSVK	DGRGQGYFDY	no signal	0/3
GFTFDDYAMH	SIDWNSGSIGGADSVK	VGRGGGYFDY	no signal	0/3
GFTFDDYAMH	VIMWNSGSIGYADSVK	VYRGGGYFDY	no signal	0/3
GFTFDDYAMH	GIWINSGSIGYADSVK	VGRCGGYFDY	180 µM	2/3
GFTFDDYAMH	GIMWNSFSIGYADSVK	VGRGGGYFDY	140 µM	1/3
GFIFDDRAMH	GIPWNSGSIGYADSVK	VGRGGGYFDY	no signal	0/3
GFTFDDPAMH	GKDWNSGSIGYADSVK	VGRGGGYFDY	no signal	0/3
GFTFDDYAMH	GICWNSLSIGYADSVK	VGRGGGYFDG	36 µM	2/3
GFTFDDYAMH	GIMWNSGSNGYADHVK	VGRGGGYFDY	37 µM	1/3
GFTFDDYAMH	GILWNSGSIGYADSVK	DGRGGGVFDY	no signal	0/3
GFTFDDYKMH	GIKWNSGSIGYADSVK	VGRGGGYFDY	no signal	0/3
GFTFDDYAMH	GINWNSGSIGYTDSVK	VGRGGGYFDY	12 µM	1/3
GFTFDDYAMH	GIIWSSGSIGYADSVK	VGRGGGYFDY	no signal	0/3
GFTFDDYAMH	GIIANSGSIGYADSDK	VGRGGGYFDY	210 µM	2/3
GFTFDDYAMH	GITWNYGSIGYADSVK	YGRGGGYFDY	52 µM	2/3
GFTFDDYAMH	GAYWNSGSIGYADSVK	VGRGGLYFDY	no signal	0/3
GFTFDDYAMH	GIAWNSMSIGYEDSVK	VGRGGGYFDY	73 nM	3/3
GFTFDDYAMH	GIWWNSGSIGYADSVK	VGPGGGYFDY	no signal	0/3
GFTFDRYAMH	GINWNSGSIGYADSVK	VGRGGGYFDA	6.7 nM	3/3
GFTFDDYAMH	GILWNSGSIFYADSVK	VGRGGGYFDY	no signal	0/3
GFTFDDYAMH	GIQWEQGSIGYADSVK	VGRGGGYFDY	56 µM	3/3
GFTFDDYAMH	GIGWNSGSILYADSVK	VGRGGGYFDY	no signal	0/3
GFTFMDYAMH	GILWNSGSIYYADSVK	VGRGGGYFDY	270 µM	1/3
GFTFDDYAMH	GIKWNSGSIGYADEVK	VSRGGGYFDY	15 µM	2/3
GFTFDVYAMH	GINWNSGSIGSADSVK	VGRGGGYFDY	no signal	0/3
GFTFDDYAMH	GILWNSGSVGYADSVK	VGRGGGHFDY	190 µM	1/3
DFTFDDYAMH	GIDWNSGSIGYNDSVK	VGRGGGYFDY	120 µM	2/3
GLTFDDYAMH	GILWNSGSIGYADSVK	VVRGGGYFDY	5.1 µM	1/3
GFTFDDTAMH	GIYWLSGSIGYADSVK	VGRGGGYFDY	no signal	0/3
GFTFDDYAMH	GVIWNRGSIGYADSVK	VGRGGGYFDY	12 µM	1/3

For reference, 9 entries of the list once more:

CDR-H1	CDR-H2	CDR-H3	Kd	detected
GFTFDVYAMH	GINWNSGSIGSADSVK	VGRGGGYFDY	no signal	0/3
GFTFDDYAMH	GICWNSLSIGYADSVK	VGRGGGYFDG	36 µM	2/3
GFTFDDYAMH	GIAWNSGYIGYADSVK	VGRLGGYFDY	15 µM	1/3
GFTFDDYAMH	GIMWNSFSIGYADSVK	VGRGGGYFDY	140 µM	1/3
GFTFDDYAMH	GICWNSESIGYADSVK	VGGGGGYFDY	no signal	0/3
GFTFDDYAMH	GILWNSGSIGYADSVK	DGRGGGVFDY	no signal	0/3
GFTFDDLAMH	GILWNSGSIGYADSVK	VGRGPGYFDY	no signal	0/3
GFTFDDYAMH	GVIWNRGSIGYADSVK	VGRGGGYFDY	12 µM	1/3
GFTFDDYAMH	GAYWNSGSIGYADSVK	VGRGGLYFDY	no signal	0/3

Data: MIT Lincoln Laboratory AlphaSeq set, Engelhart et al. 2022, doi:10.1038/s41597-022-01779-4, as distributed in FLAb.